Data on one substance can be found in publication PMC5226287 (Pharmacology Research & Perspectives, 2016).

The conditions of this data set: human, in vivo.

In the case of buprenorphine, the t max was 2 (1–3) h.
